# Data: PubChem BioAssay AID588458 (Sanford-Burnham Center for Chemical Genomics, 2011)
# By UniProt entry, the sequences of proteins in these tests, tags left out. Where a name states a change or a piece, a line headed by the entry shows the natural chain unless it says otherwise.
# UniProt P26358: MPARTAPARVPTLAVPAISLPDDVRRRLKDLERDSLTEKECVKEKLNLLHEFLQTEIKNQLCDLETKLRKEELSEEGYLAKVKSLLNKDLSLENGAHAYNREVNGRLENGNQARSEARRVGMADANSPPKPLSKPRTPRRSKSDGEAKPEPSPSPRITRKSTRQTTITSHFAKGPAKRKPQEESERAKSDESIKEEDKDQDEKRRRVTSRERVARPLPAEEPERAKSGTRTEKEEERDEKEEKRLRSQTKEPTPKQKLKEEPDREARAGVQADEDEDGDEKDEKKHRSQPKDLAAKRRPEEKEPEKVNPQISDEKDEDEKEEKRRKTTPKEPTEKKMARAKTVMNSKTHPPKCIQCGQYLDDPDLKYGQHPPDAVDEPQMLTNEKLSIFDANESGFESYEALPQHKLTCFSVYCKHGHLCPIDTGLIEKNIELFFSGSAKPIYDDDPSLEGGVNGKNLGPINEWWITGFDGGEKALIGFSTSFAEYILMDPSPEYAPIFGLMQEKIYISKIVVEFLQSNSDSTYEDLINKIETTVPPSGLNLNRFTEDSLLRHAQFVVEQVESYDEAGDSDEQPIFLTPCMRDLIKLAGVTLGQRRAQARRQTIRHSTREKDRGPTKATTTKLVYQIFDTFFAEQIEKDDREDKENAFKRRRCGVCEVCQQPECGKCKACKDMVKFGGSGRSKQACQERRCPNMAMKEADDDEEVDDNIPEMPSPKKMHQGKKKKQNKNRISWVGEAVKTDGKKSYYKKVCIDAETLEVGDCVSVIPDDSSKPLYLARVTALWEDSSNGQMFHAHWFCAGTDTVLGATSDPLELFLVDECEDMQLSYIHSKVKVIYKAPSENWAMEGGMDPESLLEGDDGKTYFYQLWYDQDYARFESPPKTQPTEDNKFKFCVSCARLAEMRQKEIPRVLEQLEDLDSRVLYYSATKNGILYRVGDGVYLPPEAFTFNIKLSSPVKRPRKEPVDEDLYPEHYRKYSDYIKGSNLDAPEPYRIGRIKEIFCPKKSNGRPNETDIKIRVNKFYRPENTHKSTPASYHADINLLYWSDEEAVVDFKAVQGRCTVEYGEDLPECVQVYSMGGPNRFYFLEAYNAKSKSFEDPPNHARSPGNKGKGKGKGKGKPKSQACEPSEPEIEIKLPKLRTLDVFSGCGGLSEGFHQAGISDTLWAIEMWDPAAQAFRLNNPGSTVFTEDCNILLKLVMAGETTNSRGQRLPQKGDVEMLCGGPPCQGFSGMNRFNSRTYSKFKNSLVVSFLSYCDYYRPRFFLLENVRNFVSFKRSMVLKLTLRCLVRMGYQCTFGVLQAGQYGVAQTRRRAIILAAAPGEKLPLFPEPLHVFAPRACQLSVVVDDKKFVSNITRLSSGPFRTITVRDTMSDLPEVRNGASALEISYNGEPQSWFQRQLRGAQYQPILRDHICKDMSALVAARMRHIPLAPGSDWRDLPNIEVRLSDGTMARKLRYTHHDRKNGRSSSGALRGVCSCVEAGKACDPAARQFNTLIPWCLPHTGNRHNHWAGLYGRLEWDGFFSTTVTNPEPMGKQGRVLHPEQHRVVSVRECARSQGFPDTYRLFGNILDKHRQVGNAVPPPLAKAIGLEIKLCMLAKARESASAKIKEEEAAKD
# This is a selection; strong and weak results do not stand in their true shares. The source made the active and inactive calls. Rule as the data show it: active = inhibition above about 50%; inactive = the rest.
# Biological target: DNA (cytosine-5)-methyltransferase 1 (Homo sapiens) (UniProt P26358)
# Test: inhibition of DNA methyltransferase DNMT1 – biochemical, molecular beacon, fluorescence, HinP1I cleavage, uHTS, primary screen (AID 588458)
# Settings: at 10 µM, stronger effect = higher value
row,SMILES,inhibition (reported as % activation of signal)
1,COC(=O)C1(C)COP(=O)(Nc2ccccc2)OC1 (configuration not stated),inactive: -1.58%
2,O=[N+]([O-])c1cccc(NC2=NCC(CBr)S2)c1 (configuration not stated),inactive: -8.55%
3,O=C(O)CNc1ccc([As](=O)(O)O)cc1,inactive: 1.33%
4,CC(C)(C)C(=O)NC(Sc1ccncn1)C(Cl)(Cl)Cl (configuration not stated),inactive: 3.44%
5,O=[N+]([O-])c1ncn(CCn2ncnc2[N+](=O)[O-])n1,inactive: -1.28%
6,O=C(Nc1cc([As](=O)(O)O)ccc1O)c1ccccc1,inactive: 3.04%
7,O=P1(N(CCCl)CCCl)OCCCS1 (configuration not stated),inactive: 2.55%
8,CC(C)c1nc(Nc2ccccc2)n(P(=O)(N(C)C)N(C)C)n1,inactive: -2.61%
9,CC(C)=N/N=C(\N)N[N+](=O)[O-],inactive: 0.34%
10,CN(C)C(=O)OCCc1n(C)cc[n+]1C,inactive: -5.79%
11,CC1CCN(C(=O)Oc2c(Cl)cc(Cl)c3cccnc23)CC1,inactive: 0.07%
12,c1cc(-c2nn[nH]n2)ccc1-c1nn[nH]n1,inactive: 4.8%
13,Nc1ccc([As](=O)(O)c2ccc(N)cc2)cc1,inactive: 1.64%
14,C[N+]1=C2C=CC=CC=C2SC12C([N+](=O)[O-])=CC([N+](=O)[O-])=C[C-]2[N+](=O)[O-] (configuration not stated),active: 95%
15,CCN(/C(=N/P(=O)(N1CCOCC1)N1CCOCC1)N1CCOCC1)c1ccc(OC)cc1,inactive: -0.38%
16,CC(=O)N1C2C3N(C(C)=O)C1C1N(C(C)=O)C(C(N1C(C)=O)N3C(C)=O)N2C(C)=O,inactive: -0.34%
17,O=[N+]([O-])c1cccc2n[nH]nc12,inactive: 0.52%
18,Cc1ccc(NP(=O)(Oc2ccccc2)Oc2ccccc2)nc1,inactive: 0.65%
19,O=[N+]([O-])c1cc([N+](=O)[O-])c(CCNc2ccccc2)c([N+](=O)[O-])c1,inactive: -3.26%
20,CCc1nc2c(n1)c1c(non1O)c1c2no[n+]1[O-],inactive: 10.2%
21,COc1ccc(C2=NCC(CBr)S2)cc1 (configuration not stated),inactive: -5.91%
22,O=[N+]([O-])C1C(O)C(O)C([N+](=O)[O-])C(O)C1O (configuration not stated),inactive: 22.6%
23,Nc1cc(N)c2nonc2c1[N+](=O)[O-],inactive: -17.2%
24,CC(C)CC(=O)NC(Sc1ccc(Cl)cc1)C(Cl)(Cl)Cl (configuration not stated),inactive: 3.18%
25,Oc1ccccc1CNc1ccccn1,inactive: 3.89%
26,O=C(NC(Sc1ccncn1)C(Cl)(Cl)Cl)c1ccccc1 (configuration not stated),inactive: 2.22%

row,SMILES,inhibition (reported as % activation of signal)
1,COc1ccccc1OP(=O)(Nc1ccc(C)cn1)Oc1ccccc1OC,inactive: 0.35%
2,Cc1ccc(OP(=O)(Nc2nccs2)Oc2ccc(C)cc2)cc1,inactive: -1.68%
3,CN1CCCC(OC(=O)C(c2ccccc2)c2ccccc2)C1 (configuration not stated),inactive: 4.35%
4,Clc1ccc(Cl)c(NC2=NCC(CBr)S2)c1 (configuration not stated),inactive: 2.14%
5,NC(=O)c1cc([N+](=O)[O-])cc([N+](=O)[O-])c1N,inactive: 3.53%
6,CN(C(=O)Cc1ccc(Cl)c(Cl)c1)[C@H]1CCCC[C@H]1N1CCCC1,inactive: -5.94%
7,Cc1ccc(N/C(=N/P(=O)(N2CCOCC2)N2CCOCC2)N2CCOCC2)cc1,inactive: 2.64%
8,CCN(N=Nc1nonc1N)c1nonc1N,inactive: 0.2%
9,Nc1cccc2ccc([As](=O)(O)O)cc12,active: 74.2%
10,Cc1cc(SC(NC(=O)c2ccc(F)cc2)C(Cl)(Cl)Cl)ncn1 (configuration not stated),inactive: 3.39%
11,CCOP(=O)(Nc1ccccc1)OCC,inactive: 2.89%
12,CN(C(=O)Cc1ccc(Cl)c(Cl)c1)[C@H]1CCCC[C@@H]1N1CCCC1,inactive: -3.92%
13,Cc1ccc(NP(=O)(Oc2ccccc2F)Oc2ccccc2F)nc1,inactive: -0.33%
14,CC(=O)Nc1ccc([As](=O)(O)O)cc1,inactive: 3.02%
15,O=C(O)c1ccccc1[As](=O)(O)O,inactive: 1.67%
16,CCCC1OP(N)(=O)OCC1CC (configuration not stated),inactive: -2.96%
17,O=P(Nc1nc2ccc(Cl)cc2s1)(c1ccccc1)c1ccccc1,inactive: -4.33%
18,CN(C)P(=O)(N(C)C)n1c(Nc2ccccc2)nnc1-c1ccccc1,inactive: 1.07%
19,CC(NC(=O)COC(=O)C(O)(c1ccccc1)c1ccccc1)c1ccccc1 (configuration not stated),inactive: -0.73%
20,Cc1ccccc1OP(=O)(Nc1ccccn1)Oc1ccccc1C,inactive: -0.96%
21,O=c1c2cc([N+](=O)[O-])ccc2[nH]c2c([N+](=O)[O-])cc([N+](=O)[O-])cc12,inactive: -13.5%
22,CN(C)C(=O)Oc1noc2ccccc12,inactive: -0.52%
23,COC(=O)c1cc2c(s1)N=C(c1ccccc1)N(C)P2(=O)N1CCOCC1 (configuration not stated),inactive: 4.01%
24,CC(=O)NC(SC(=S)N(CC(C)C)CC(C)C)C(Cl)(Cl)Cl (configuration not stated),inactive: -10.6%
25,Cc1ccc(OP(=O)(Nc2ccccn2)Oc2ccc(C)cc2)cc1,inactive: -2.43%
26,O=C(OC1CN2CCC1CC2)c1ccccc1 (configuration not stated),inactive: -0.68%

row,SMILES,inhibition (reported as % activation of signal)
1,CCC(=O)N1C2C3N(C(=O)CC)C1C1N(C(=O)CC)C(C(N1C(=O)CC)N3C(=O)CC)N2C(=O)CC,inactive: -0.68%
2,O=P1(N(CCCl)CCCl)OCCC2CCCCN21 (configuration not stated),inactive: -10.1%
3,O=C(NC1CCS(=O)(=O)C1)NP(=S)(Oc1ccccc1)Oc1ccccc1 (configuration not stated),inactive: -4.56%
4,CCNC(=S)/N=C(\N)N[N+](=O)[O-],inactive: 0.9%
5,c1ccc(-c2nn[nH]n2)c(-c2nn[nH]n2)c1,inactive: 0.18%
6,Cc1ccc(NP(=O)(Oc2cccc(C)c2)Oc2cccc(C)c2)nc1,inactive: 6.92%
7,CC(=O)Nc1ccc([As](=O)(O)O)c(O)c1,inactive: -0.77%
8,CC(=O)Nc1ccc(Oc2c([N+](=O)[O-])cc([N+](=O)[O-])cc2[N+](=O)[O-])cc1,inactive: -0.77%
9,CC(=O)c1ccc(N2CC2c2ccncc2)cc1 (configuration not stated),inactive: 1.14%
10,N#C/C(=C\c1ccc(N(CCBr)CCBr)cc1)C(N)=O,inactive: 14.1%
11,COC(=O)C1(C)COP(=O)(NCc2ccccc2)OC1 (configuration not stated),inactive: 2.86%
12,Cc1ccccc1CN(C)C(=O)COC(=O)C(O)(c1ccccc1)c1ccccc1,inactive: 2.56%
13,C[C@H]1OP(=O)(Oc2ccccc2)C[C@@H]2O[C@@H]21 (some centres not stated),inactive: 0.2%
14,C[C@@H]1C=CCP(=O)(Oc2ccccc2)O1 (some centres not stated),inactive: 3.09%
15,CCc1cc(O)c([N+](=O)[O-])c(C)c1[N+](=O)[O-],inactive: -0.13%
16,CC(C)(C)C(=O)NC(Sc1ccccc1)C(Cl)(Cl)Cl (configuration not stated),inactive: 1%
17,O=P1(Nc2nc3ccc(Cl)cc3s2)COc2ccccc2O1 (configuration not stated),inactive: -0.53%
18,CCOc1ccc(C2=NCC(CBr)S2)cc1 (configuration not stated),inactive: 5.4%
19,c1nnnn1CCn1cnnn1,inactive: 2.19%
20,O=P(Nc1nccs1)(c1ccccc1)c1ccccc1,inactive: 1.76%
21,CC(C)C(=O)NC(Sc1ccccc1)C(Cl)(Cl)Cl (configuration not stated),inactive: -0.16%
22,C(Cc1nn[nH]n1)Cc1nn[nH]n1,inactive: 11.1%
23,Nc1ccc([As](=O)(O)c2ccc([N+](=O)[O-])cc2)cc1,inactive: -0.13%
24,O=C(OC1CN2CCC1CC2)c1cccc(Cl)c1 (configuration not stated),inactive: 3.66%
25,CC(=O)NC(SC(=S)N(C)C)C(Cl)(Cl)Cl (configuration not stated),inactive: 2.12%
26,O=[N+]([O-])c1ncn(CCn2cnc([N+](=O)[O-])n2)n1,inactive: -0.69%

row,SMILES,inhibition (reported as % activation of signal)
1,O=[N+]([O-])c1ccc(O)c(/C=N/Nc2ccc([N+](=O)[O-])cc2[N+](=O)[O-])c1,inactive: -9.37%
2,O=[As](O)(c1ccccc1)c1ccc(O)cc1,inactive: 2.13%
3,O=P(Nc1nc2ccccc2s1)(c1ccccc1)c1ccccc1,inactive: 3.52%
4,C[C@H]1OP(=O)(Oc2ccccc2)[C@H](O)[C@H](O)[C@H]1N=[N+]=[N-] (some centres not stated),inactive: 5.89%
5,COc1ccc(N)c([N+](=O)[O-])c1[N+](=O)[O-],inactive: 40.4%
6,Nc1ccc(CCCCOc2ccccc2)cc1,inactive: -2.64%
7,CN(C)C1(CNC(=O)c2ccc(Cl)c(S(N)(=O)=O)c2)CCCCC1,inactive: 0.3%
8,O=P(Nc1ccccn1)(c1ccc(Br)cc1)c1ccc(Br)cc1,inactive: 1.17%
9,Cc1ccc(OCC(=O)OC2CN3CCC2CC3)cc1 (configuration not stated),inactive: -0.65%
10,O=[As](O)(c1cccs1)c1cccs1,inactive: 3.18%
11,NS(=O)(=O)c1cccc(NC(=O)COC(=O)C(O)(c2ccccc2)c2ccccc2)c1,inactive: 0.21%
12,O=P1(Nc2ccc(Br)cn2)COc2ccccc2OC1,inactive: -2.69%
13,Nc1cccc([As](=O)(O)c2ccccc2)c1,inactive: -2.04%
14,O=P1(Nc2ncccn2)COc2ccccc2OC1,inactive: 0.05%
15,Cc1ccc(S(=O)(=O)N(CCCN)CCCc2c(C)nc(N)[nH]c2=O)cc1,inactive: 4.18%
16,O=C(/C=C/c1ccccc1)OC1CN2CCC1CC2 (configuration not stated),inactive: 1.8%
17,CCCC1OP(=O)(Nc2ccccc2)OCC1CC (configuration not stated),inactive: 6.99%
18,CN(C)C1(CNC(=O)c2ccc(S(C)(=O)=O)cc2)CCCCC1,inactive: 1.43%
19,Cc1nn(-c2ccccc2)c2c1P(=O)(N1CCOCC1)N(C)C(c1ccccc1)=N2 (configuration not stated),inactive: 0.7%
20,Cc1ccc(C(=O)OC2CN3CCC2CC3)cc1 (configuration not stated),inactive: 0.32%
21,CC1CCC(C(C)C)C(OP(=O)(Nc2ccccn2)c2ccccc2)C1 (configuration not stated),inactive: 2.18%
22,CC1(CBr)Cn2c(nc3ccccc3c2=O)S1 (configuration not stated),inactive: -0.87%
23,CN(C(=O)Cc1ccc(Cl)c(Cl)c1)[C@@H]1CCCC[C@H]1N1CCCC1,inactive: -1.27%
24,CC(C)/C=N\N=C(\N)N[N+](=O)[O-],inactive: 0.41%
